{"source": "patent US10813933B2", "about": "“Therapeutic agent for lung cancer that has acquired EGFR-TKI resistance” (JAPANESE FOUNDATION FOR CANCER RESEARCH, priority 2016, dated 2020)", "key": {"[1]": {"tested_on": "phosphorylation of EGFR and downstream signal transductions in triple-mutant expressing PC9 cell line", "assay": "Western blotting of EGFR signal, PC9 triple-mutant", "type": "cell-based, human", "conditions": "FIG. 10C, 10D"}, "[2]": {"tested_on": "phosphorylation of EGFR and downstream signal transductions in T790M/exon 19 deletion mutant expressing PC9 cell line", "assay": "Western blotting of EGFR signal, PC9 T790M", "type": "cell-based, human", "conditions": "FIG. 10B, 10D"}, "[3]": {"tested_on": "EGFR gene mutation-positive case", "conditions": "NEJ002; cited from earlier work"}, "[4]": {"tested_on": "EGFR gene mutation-positive case", "conditions": "cited from earlier work"}, "[5]": {"tested_on": "phosphorylation of EGFR and downstream signal transductions in T790M/del19 Ba/F3 cells", "assay": "Western blotting of EGFR phosphorylation and downstream signal", "type": "cell-based, mouse", "conditions": "10, 100, 1000 nM; FIG. 2E"}, "[6]": {"tested_on": "phosphorylation of EGFR and downstream signal transductions in parental line PC9", "assay": "Western blotting of EGFR signal, PC9", "type": "cell-based, human", "conditions": "FIG. 10A, 10D"}}, "note": "Read-outs that look alike come from different tables or passages of the source.", "data": [{"smiles": "COc1cc2ncnc(Nc3ccc(F)c(Cl)c3)c2cc1OCCCN1CCOCC1", "note": "[gefitinib]", "values": [{"measurement": "suppression of phosphorylation of EGFR and downstream signal (in words)", "setting": "[1]", "value": "neither of afatinib, osimertinib, or gefitinib demonstrated the suppression effect"}, {"measurement": "suppression of phosphorylation of EGFR and downstream signal (in words)", "setting": "[2]", "value": "did not substantially demonstrate the phosphorylation suppression effect"}, {"measurement": "PFS", "setting": "[3]", "value": 10.8, "unit": "months"}, {"measurement": "HR of PFS", "setting": "[4]; WJTOG3405, gefitinib vs CDDP+DTX", "value": 0.520}, {"measurement": "PFS", "setting": "[4]; WJTOG3405", "value": 9.6, "unit": "months"}, {"measurement": "suppression of phosphorylation of EGFR and downstream signal (in words)", "setting": "[5]", "value": "the same effect as afatinib"}, {"measurement": "suppression of phosphorylation of EGFR and downstream signal (in words)", "setting": "[6]", "value": "also very strongly suppressed the phosphorylation"}]}]}
